Experimental data taken from BindingDB's records for doi:10.1021/jm00011a008 (Upjohn, 1995).

Target: T1, Dimer of Gag-Pol polyprotein [489-587] (Human immunodeficiency virus 1, UniProt P12497)
T1 construct: 489-587
Assay: Protease Inhibition Assay
Conditions: pH 5; 22 °C
Description: HIV-1 protease was purified and refolded from E. coli inclusion bodies. The substrate used spans the p17-p24 processing site (R-V-S-Q-N-Y-P-I-V-Q-N-K) and was derivatized with biotin and fluorescein isothiocyanate (FITC) at the amino and carboxy termini. In the presence of HIV-l protease, the substrate is rapidly cleaved into two parts. The biotinylated amino terminal fragment binds to the avidin beads while the FITC-containing carboxy1 terminal fragment is removed through the membrane. […] The bound fluorescence is obtained by processing on an IDEXX Screen Machine. Determination of Ki values with this assay requires analysis under conditions in which substrate concentration resides substantially below Km and the inhibitor concentrations greatly exceeds the Ki value and the enzyme concentration.

## O=c1oc2c(c(O)c1C(C1CC1)C1CC1)CCCCCC2 [3-(dicyclopropylmethyl)-4-hydroxy-2H,5H,6H,7H,8H,9H,10H-cycloocta[b]pyran-2-one]
  Ki: 0.057 µM
